Measurements: patent US8624027B2, “Combination therapy for treating cancer and diagnostic assays for use therein” (AbbVie Inc., priority 2005, dated 2014)

By UniProt entry, the sequences of proteins in these tests, tags left out. Chains listed by the source or under a name are the forms on record and can include a tag or linker.
UniProt P10415, with tags, fused parts or gaps with the stated changes: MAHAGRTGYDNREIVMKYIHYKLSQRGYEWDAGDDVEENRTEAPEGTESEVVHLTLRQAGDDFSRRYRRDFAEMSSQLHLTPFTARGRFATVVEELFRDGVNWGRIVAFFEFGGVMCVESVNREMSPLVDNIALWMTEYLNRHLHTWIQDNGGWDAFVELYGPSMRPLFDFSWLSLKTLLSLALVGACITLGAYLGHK

Biological target: T1, Bcl-2 protein (Homo sapiens, UniProt P10415, DELINS35-91DVEENRTEAPEGTESE, form not given)
T1 construct: fused on or other part: A short piece of the Bcl-xL (Q07817) loop replaces Bcl-2 loop residues 35-91; The C-terminal membrane anchor is absent
Assay: Bcl-2 binding affinity, fluorescence polarization with fluorescein-labeled BAX peptide
Settings: Wang's equation, read-out: Target Binding Affinity Ki (Bcl-2)
Procedure: Binding affinity of compounds having formula (II) to Bcl-2 protein is indicia of their inhibition of the activity of this protein. […] A mixture comprising 125 µL per well of assay buffer (20 mM phosphate buffer (pH 7.4), 1 mM EDTA, 50 mM NaCl, 0.05% PF-68), 10 nM of Bcl-2 protein (prepared according to the procedure described in PNAS 2001, 98, 3012-3017), 1 nM fluorescein-labeled BAX peptide (prepared in-house) and the DMSO solution of the representative EXAMPLE was shaken for 2 minutes and placed in a LJL Analyst (LJL Bio Systems, CA. Polarization was measured at room temperature using a continuous Fluorescein lamp (excitation 485 nm, emission 530 nm). The results are also shown in TABLE 1.
The compounds of interest and the internal standard were separated from each other and co-extracted contaminants on a 50×3 mm Keystone Betasil CN 5 μm column with an acetonitrile: 0.1% trifluoroacetic acid mobile phase (50:50, by volume) at a flow rate of 0.7 ml/min. Analysis was performed on a Sciex API 300™ Biomolecular Mass Analyzer using a heated nebulizer interface. Peak areas of the title compounds and internal standards were determined using the Sciex MacQuan™ software. […] The methods were generally linear over the range of the standard curve (correlation coefficients >0.99) with an estimated quantitation limit of 0.01 μg/mL. […]

CC1(C)CCC(c2ccc(Cl)cc2)=C(CN2CCN(c3ccc(C(=O)NS(=O)(=O)c4ccc(N[C@H](CCN5CCOCC5)CSc5ccccc5)c(S(=O)(=O)C(F)(F)F)c4)cc3)CC2)C1 [Example 1, N-(4-(4-((2-(4-chlorophenyl)-5,5-dimethyl-1-cyclohex-1-en-1-yl)methyl)piperazin-1-yl)benzoyl)-4-(((1R)-3-(morpholin-4-yl)-1-((phenylsulfanyl)methyl)propyl)amino)-3-((trifluoromethyl)sulfonyl)benzenesulfonamide] was tested, and the Ki was at most 1 nM.
